Laboratory results published in article PMC7252906 (Toxicology and applied pharmacology, 2019).
Where two headings read alike, the source gives them in different places.

What was measured:
[1] = male rats, gavage 160 mg/kg, 24 h; DMAE pre-treatment 500 mg/kg, 1 h prior
[2] = female mice, gavage 160 mg/kg, 24 h, listed as [^14C]choline

% Dose Recovered, Feces [1]: 11.2 ± 8.40 % dose
% Dose Recovered, Total Recovered ([2]; DMAE dose 0, 160 mg/kg): 80.8 ± 16.7 % dose
% Dose Recovered, Feces ([2]; DMAE pre-treatment 500 mg/kg, 1 h prior): 11.2 ± 5.90 % dose
Structure (SMILES): C[N+](C)(C)CCO [choline, N,N,N-trimethylaminoethanol]
